# Measured affinities in a library of Ab-14 light chain variants

Source: Li et al. 2023 (doi:10.1038/s41467-023-39022-2), MIT Lincoln Laboratory and A-Alpha Bio; data file from the FLAb repository.

Target peptide (SARS-CoV-2 spike, HR2 region): PDVDLGDISGINAS

Parent scFv Ab-14: VH joined to VL by a 15-residue (Gly4Ser)3 linker. Changes lie in the light chain CDRs alone.
VH: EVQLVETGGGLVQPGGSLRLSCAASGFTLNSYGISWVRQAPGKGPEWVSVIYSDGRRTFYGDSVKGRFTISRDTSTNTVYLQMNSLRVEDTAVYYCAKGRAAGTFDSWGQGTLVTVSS
VL: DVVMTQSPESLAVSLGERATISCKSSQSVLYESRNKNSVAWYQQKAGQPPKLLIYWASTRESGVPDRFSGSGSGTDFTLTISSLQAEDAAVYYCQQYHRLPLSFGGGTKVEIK

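Phage display of a naive human antibody library on the peptide gave the parent. Designed CDR sequences, proposed from the first random library and measured here. Several design methods are mixed in this list. AlphaSeq pools MATa yeast showing the antibodies with MATalpha yeast showing the peptide. Mating (16 h, 30 °C) was followed by selection of diploids and sequencing of their barcodes. A regression on co-assayed BCL2-family reference pairs converts the normalised counts of each replicate to an apparent Kd. The assay was run in six technical replicates.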

Each variant is given by its three light chain CDRs, as the data file delimits them; those of the parent are KSSQSVLYESRNKNSVA, WASTRES, QQYHRLPLS.
This list holds designs with at most six substitutions.
Kd is apparent (estimated from mating counts) and averaged on the log scale over replicates with a signal. Smaller is tighter.
Where no diploid with the target was found in any replicate, the entry reads "not detected": below detection, most likely a poor binder, though not proof of it.
Entries are sorted by rising average, undetected variants last.

CDR-L1,CDR-L2,CDR-L3,apparent Kd,replicates with signal
KLSQSVLYESRAKNSVA,EASTRES,QQYHRLPLS,260 pM,6 of 6
KLSQSVLYEDRNKNNVA,NASTRES,QQYHRLPLS,260 pM,6 of 6
HLSQSVLYESRNKNSVA,NASTREQ,QQYHRLPLS,330 pM,6 of 6
KFSQSWLYESRNKNSVA,GASQRES,QQYHRLPLS,370 pM,6 of 6
KFSQSWLYESRNKNSVA,HASQRES,QQYHRLPLS,390 pM,6 of 6
KVDQSVLYESRNKNSVA,EASTRES,QQYHRLPLS,430 pM,6 of 6
KSSEVYLYESRNKNSVA,GASTRES,QQYHRLPLS,430 pM,6 of 6
KQSQSVLFESRNKNSVA,DASTRES,QQYHRLPLS,500 pM,6 of 6
KWSQSWLYESRNKNSVA,GASTRES,QQYHRLPLS,510 pM,6 of 6
KLSQSVLYESRNKNSVA,NASLRES,QQYHRLPLS,560 pM,6 of 6
KVSQSVPYESRNKNSVA,EASTRCS,QQYHRLPLS,620 pM,6 of 6
KSMQSELDENRNKNSVA,SASTRLS,QQYHRLPLS,690 pM,6 of 6
KFSQSVDYESRNKNSVA,EASTRES,QQYHRLPLS,730 pM,6 of 6
HLSDSVLYESRNKNSVA,NASTRES,QQYHRLPLY,750 pM,6 of 6
KSGGGELYESRNKNSVA,GASMRES,QQYHRLPLS,750 pM,6 of 6
KLYQSVLYESRMKNSVA,NASTRES,QQYHRLPLS,780 pM,6 of 6
KFSQVQLYESRNKNSVA,GASTRES,QQYHRLPLS,830 pM,6 of 6
KLEQSWLYESRNKNSVA,NASTRES,QQYHRLPLS,880 pM,6 of 6
KLSMSVLYESRNKNSVA,EASTREQ,QQYHRLPLS,900 pM,6 of 6
KVSQSVLYEQRNKNSVA,DASTRES,QQYHRLPLS,920 pM,6 of 6
KLEQSVLYESRNKNSVA,NGSTRES,QQYHRLPLS,930 pM,6 of 6
KLQQSELYESRNKNSVA,NASTRED,QQYHRLPLS,970 pM,6 of 6
KISQSVLYEDRNKNSVA,NASTRMS,QQYHRLPLS,1.0 nM,6 of 6
KLSQSELYESRNSNSVA,NASTRMS,QQYHRLPLS,1.1 nM,6 of 6
KSSMLYLEESRNKNSVA,EASTRES,QQYHRLPLS,1.1 nM,6 of 6
KLSQKVLYEGRTKNSVA,NASTRES,QQYHRLPLS,1.1 nM,6 of 6
KVSMSVLYESRVKNSVA,EASQRES,QQYHRLPLS,1.4 nM,6 of 6
KVFQNVLMESRNKNSVA,AASTRES,QQYHRLPLS,1.4 nM,6 of 6
KSSISSLYESRMKNSVA,EASTRES,QQYHRLPLS,1.4 nM,6 of 6
KLYQSELYESRMKNSVA,NASTRES,QQYHRLPLS,1.4 nM,6 of 6
KFSQSHLYESRNKNSVA,NASTRES,QQYHRLPLS,1.5 nM,6 of 6
KISQLVLYESRNKNSVA,NANTRES,QQYHRLPLS,1.5 nM,6 of 6
KFSQLWLYESRNKNSVA,NASTRES,QQYHRLPLS,1.6 nM,6 of 6
KISQSVKMESRNKNSVA,DASTRES,QQYHRLPLS,1.8 nM,6 of 6
KSSNSVLGEERNKNSVA,RASTRES,QQYHRLPLS,1.9 nM,6 of 6
KSSQSVLYESLNKNSVA,QASERES,QQYHRLPLS,2.0 nM,6 of 6
KQSQSELCESRNKNSVA,DASTRES,QQYHRLPLS,2.1 nM,6 of 6
KSSISYLGELRNKNSVA,EASTRES,QQYHRLPLS,2.2 nM,6 of 6
KLSGSTLYDSQNKNSVA,WASTRES,QQYHRLPLS,2.9 nM,6 of 6
KLSQSDLYESRQKNSVA,NASTRES,QQYHRLPLS,2.9 nM,6 of 6
KSSQSWLYESRNKNSVA,GASMRES,QQYHRLPLS,3.0 nM,6 of 6
KLSQSVPYESRNKNSVA,EASTRES,QAYHRLPLS,4.0 nM,6 of 6
KLSQSTLYDSINKNSVA,WASTRES,QQYKRLPLS,4.1 nM,6 of 6
KAMQSVLYESYNKNSVA,NASTRES,QQYHLLPLS,4.2 nM,6 of 6
KLPQSWEYESRNKNSVA,NASTRES,QQYHRLPLS,4.7 nM,6 of 6
KSSQSWLYESRNKNSVA,HASTREQ,QQYHRLPLM,4.8 nM,6 of 6
KSSTSVLYESGNKNSVA,HASTRED,QQYHRLPLS,5.2 nM,6 of 6
KNSQSVLYESRNKNSVA,GVSTRES,QQYHRLPLS,5.4 nM,6 of 6
LSSESYLYESPNKNSVA,EASTRES,QQYHRLPLS,5.9 nM,6 of 6
KSSQSVLYESRNKNSVA,AASTRES,QQYAELPLS,6.2 nM,6 of 6
KSLQSQLYESRNKNSVA,HASTRED,QLYHRLPLS,8.3 nM,6 of 6
KSSDSYLYESRNTNSVA,EASTRES,QQYHRLPLS,8.7 nM,6 of 6
KSQQSVLYESRNKNSVA,DGSTLES,SQAHRLPLS,11 nM,6 of 6
KFSQSVLYESRTQNRVA,NASTRES,QQYHRLPLS,13 nM,6 of 6
VSSQSFLYESRNKNSVA,WASTRES,QQYHRLPLS,16 nM,6 of 6
KSSQSVLYESRNKQNVA,WGSTRES,QQYHRLPLS,20 nM,6 of 6
KLRQSHNYESRNKNSVA,NASTRES,QIYHRLPLS,29 nM,6 of 6
KMTQSVLEISRNKNSVA,WASTRES,QQYHQLPLS,41 nM,5 of 6
KVSQSVLLEVRNKNSVA,WASTRES,QQYHRLPLS,53 nM,1 of 6
FSLQSVLLESRNFNSVA,HASTRED,QQYHRLPLS,66 nM,6 of 6
KSSYSVLYESDNKNSVA,WASTRES,QQYHRLPLS,67 nM,6 of 6
KSSDSVLDESRNKNSVA,WASKRES,QQYHRLPLS,85 nM,6 of 6
KSSQSTLYETRNKNSVA,WASTRES,QQYHRLPLS,91 nM,5 of 6
KSSQSVLYEDRNKQSVA,WASTRES,QQYHRLPLS,97 nM,6 of 6
KMSDSVLYESRNKNSVA,WASTRES,QQYVRLPLS,110 nM,1 of 6
KLSQSVLYEFRNKNSVA,WASTRIS,QQYHRLPLS,150 nM,6 of 6
KSLQSVLYESFNKNSVA,WASTRES,QQYHRLPLS,170 nM,3 of 6
KLSQSQEYESRNKNSVA,NASTRET,QQYHRLPLE,290 nM,6 of 6
KSSQSVLWSSRNKNSVA,WASTRFS,QQYHRLPLS,400 nM,2 of 6
KFSQSGLYESRTKNSVA,NASTRES,QWYHRLPLS,470 nM,4 of 6
KLQQQTLYESRNKNSVA,NASTREE,QQYHRLPLS,not detected,0 of 6
KSSPSTLYESRNKNSVA,NASTRES,QQYHRLPLS,not detected,0 of 6
FSLQSVEYESRNPNSVA,WASTRES,QMYHRLPLS,not detected,0 of 6
KSSQSVLYFERNKNSIA,WASTRES,QMYHRLTLS,not detected,0 of 6
KLWQSELYESRNKNSVA,WASTPES,QQYHRLPLS,not detected,0 of 6
KSSTHVLYESRNKNSVA,WASTRVS,QQYHRLPLS,not detected,0 of 6
KSSQSVLYESNNKNSVA,WASTRES,YQYHRLPLS,not detected,0 of 6
KSSQSVLYESMNKNSVA,GASTRES,QQYTRLPPS,not detected,0 of 6

From the list, the first 8 with no signal in any replicate:

CDR-L1,CDR-L2,CDR-L3,apparent Kd,replicates with signal
KLQQQTLYESRNKNSVA,NASTREE,QQYHRLPLS,not detected,0 of 6
KSSPSTLYESRNKNSVA,NASTRES,QQYHRLPLS,not detected,0 of 6
FSLQSVEYESRNPNSVA,WASTRES,QMYHRLPLS,not detected,0 of 6
KSSQSVLYFERNKNSIA,WASTRES,QMYHRLTLS,not detected,0 of 6
KLWQSELYESRNKNSVA,WASTPES,QQYHRLPLS,not detected,0 of 6
KSSTHVLYESRNKNSVA,WASTRVS,QQYHRLPLS,not detected,0 of 6
KSSQSVLYESNNKNSVA,WASTRES,YQYHRLPLS,not detected,0 of 6
KSSQSVLYESMNKNSVA,GASTRES,QQYTRLPPS,not detected,0 of 6

The authors' rule: three or more of the six replicates give a measured affinity, fewer mean a poor binder.
Values of this round are not directly comparable with the first-round values of the same sequences.
Of ten entries with the parent sequence, four were seen in most replicates (averages 2.2 nM to 240 nM), three in one and three in none, so single entries are noisy.
Background: pairings of all light chain designs with three empty control strains gave a value in 4% of cases (median 430 nM, 5th percentile 38 nM). Values in that range, when seen in few replicates, are hard to tell from nonspecific mating.